Results published in US12275719B2, “Small molecule inhibitors of galectin-3” (BRISTOL-MYERS SQUIBB COMPANY, priority 2019, dated 2025).

Protein sequences, listed by entry. Tags and fused reporters are not part of them.
UniProt P17931, whole entry: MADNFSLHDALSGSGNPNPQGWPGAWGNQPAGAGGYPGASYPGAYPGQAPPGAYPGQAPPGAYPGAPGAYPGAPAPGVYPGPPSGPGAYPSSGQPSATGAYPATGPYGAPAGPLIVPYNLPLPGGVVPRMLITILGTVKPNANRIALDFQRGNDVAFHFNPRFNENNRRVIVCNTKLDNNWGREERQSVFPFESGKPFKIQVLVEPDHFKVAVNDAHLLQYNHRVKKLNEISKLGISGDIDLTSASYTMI

Target: His-tagged recombinant human Gal-3 (hGal-3) (Homo sapiens, UniProt P17931)
Test: Gal-3 HTRF assay (hGal-3 / B-ASF binding inhibition)
Details: read-out: hGal-3 IC50; table of Examples 5 to 25
Method: ASSAY BUFFER Composition: 25 mM HEPES, 100 mM NaCl, 0.005% Tween 20, 0.05% BSA prepared in sterile water (all reagents from Sigma).
Positive Control: 100% DMSO (1 μL)+His-tagged hGal-3 (20 μL)+β-ASF (20 μL)+Anti-His Terbium Antibody (5 μL)+Strep d2 Antibody (5 μL).
Negative Control: 100% DMSO (1 μL)+His-tagged hGal-3 (20 μL)+Anti His Terbium Antibody (5 μL)+Strep d2 Aantibody (5 μL).
PROTOCOL: The Gal-3 assays were performed in 384 white Opti plates in three replicates at room temperature with gentle shaking at 250-300 rpm From the original stocks, […] working stock concentrations of His-tagged recombinant human Gal-3 (hGal-3) and that of B-ASF were prepared. From the working stock, 20 μL of hGal-3 (15 nM) and 20 μL B-ASF (15 nM) were added to the plates. In Negative Control, only hGal-3 was added. A concentration range of 50× working stocks were prepared for the compounds in 100% DMSO. Aliquots of 1 μL of the compounds were added to the wells and pre-incubated with 20 μL hGal-3 per well for 30 minutes Then 20 μL B-ASF were added and incubated for another 1 hour. […] The assay signal was detected using HTRF screen protocol (Excitation wavelength=340 nm, emission wavelength=615 nm/665 nm) on Envision 2104 Multilabel Reader. Data analysed using Toolset and Curve Master. […]

| Compound | IC50 [nM] |
| --- | --- |
| Cc1nc([C@@H]2O[C@H](CO)[C@H](O)[C@H](n3cc(-c4ccc(Cl)c(F)c4F)nn3)[C@H]2O)n(-c2cc(Cl)ccc2OC(F)(F)F)n1 | 17 |
| Cc1nc([C@@H]2O[C@H](CO)[C@H](O)[C@H](n3cc(-c4cc(F)c(Cl)c(F)c4)nn3)[C@H]2OCC(=O)C2CCC2)n(-c2cc(Cl)ccc2C(F)(F)F)n1 | 28 |
